Source: US20240299576A1, “TARGETING CONJUGATES COMPRISING EFFECTOR MOLECULES AND USES THEREOF” (priority 2021, published 2024)

Experiments:
[1] = Stability of compounds of Formulae (1) and (2) in plasma; type: in vitro ADME; details: pH 7.4
[2] = system: HCT15-hPDL1 cells; type: cell-based, human; details: 5 days exposure; read-out: HCT15-hPDL1 cell IC50
Method: The cell line was named as HCT15-hPDL1.
The in vitro anti-tumor activity was determined by CellTiter-Glo® Luminescent Cell Viability Assay (Promega) according to the manufacturer's instructions. […] Untreated cells served as control. ADCs, antibodies, or payloads in 100 μL medium were added in duplicate at various concentrations with a 2-fold dilution series starting with concentrations of 1 uM, respectively. Cells were exposed to test articles for 5 days. Absorbance was measured at 450 nm by a microplate reader. The cell survival rate (%) was calculated using the following formula: sample/control×100%.

[3] = Stability of compounds of Formulae (1) and (2) in buffer; type: physicochemical
[4] = target: CathepsinB (Homo sapiens, UniProt P07858); assay: Digestion of the drug-linkers by CathepsinB; details: 125 nM enzyme, 62.5 μM drug-linker, pH 5.5, 37° C., 3 hours
[5] = alkaline conditions 10 minutes, then acidic conditions (pH 9→5)

Row | Substance | Stability in plasma [1] | pIC50 [2] | in the form of lactones ([3]; acidic conditions (buffer pH 5)) [%] | in the form of lactones [3, 5] [%] | lactone-opening products [3, 5] [%] | lactones in the form of ring opening ([3]; alkaline conditions (buffer pH 9)) [%] | CathepsinB digestion [4] | existing in the form of lactones in buffer ([3]; buffer, less affected by pH) [%]
1 | Glycine3-amido-PEG8-VC-PAB-DMAE-phenol linked SN38 [Compound of Formula (1)] | partially hydrolyzed in plasma, mainly in the form of lactone opening | < 6.52 | 88 | 98 | 0.21 | 92 | effectively digested | 
2 | Glycine3-amido-PEG8-VC-PAB-DMAE-α-hydroxy lactone linked SN38 [Compound of Formula (2)] | mainly in the form of lactones in the plasma, and ring-opening products were basically invisible |  |  |  |  |  |  | 98

pIC50: −log10 of the molar value.
